Reference: patent US11498896B2 (The Broad Institute, Inc., priority 2014, dated 2022)

Sequences of proteins named here, by UniProt entry; tags and fusion partners are left off. A change or cut given only in a name is not applied to a line headed by its entry.
UniProt P14416, whole entry: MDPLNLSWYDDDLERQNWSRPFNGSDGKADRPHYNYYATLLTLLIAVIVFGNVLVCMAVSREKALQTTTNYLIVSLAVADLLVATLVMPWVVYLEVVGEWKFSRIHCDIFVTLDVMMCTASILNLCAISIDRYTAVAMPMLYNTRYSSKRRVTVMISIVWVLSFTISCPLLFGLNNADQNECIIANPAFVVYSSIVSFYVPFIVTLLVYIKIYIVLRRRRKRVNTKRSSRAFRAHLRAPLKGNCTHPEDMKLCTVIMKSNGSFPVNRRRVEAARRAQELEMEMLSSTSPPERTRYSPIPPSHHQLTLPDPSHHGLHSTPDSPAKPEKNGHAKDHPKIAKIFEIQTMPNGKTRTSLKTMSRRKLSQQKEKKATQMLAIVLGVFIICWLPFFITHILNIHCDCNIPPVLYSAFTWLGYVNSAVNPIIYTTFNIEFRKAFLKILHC

Assays:
[1] = target: T1, human D2R/β-arrestin (Homo sapiens (Human), UniProt P14416); details: read-out: β-arrestin Antagonist; CHO-K1 cells expressing human D2R/β-arrestin; antagonist mode, quinpirole 130 nM
[2] = target: T1, human D2R/β-arrestin; experiment: β-arrestin agonist assay (PathHunter); assay type: cell-based; details: read-out: β-arrestin Agonist; CHO-K1 cells expressing human D2R/β-arrestin; agonist mode
[3] = target: T1, human D2R/β-arrestin; details: read-out: cAMP Antagonist; CHO-K1 cells expressing human D2R/β-arrestin; antagonist mode, 2.5 μM forskolin and 2.7 nM quinpirole
[4] = target: T1, human D2R/β-arrestin; experiment: Gi/cAMP agonist assay (Lance Ultra cAMP, forskolin); assay type: cell-based; details: read-out: cAMP Agonist; CHO-K1 cells expressing human D2R/β-arrestin; agonist mode, 2.5 μM forskolin

| SMILES | pIC50 [1] | pEC50 [2] | pIC50 [3] | pEC50 [4] |
| --- | --- | --- | --- | --- |
| CC1(Oc2ccc(Cl)cc2)CCCN(CCOc2ccccc2)C1 (single isomer, unassigned) | 5.00 to 6.00 | < 4.52 | 6.00 to 7.00 | < 4.52 |
| CC1(Oc2ccc(Cl)cc2)CCCN(CCOc2ccccc2F)C1 (single isomer, unassigned) | 5.00 to 6.00 | < 4.52 | 6.00 to 7.00 | < 4.52 |
| CC1(Oc2ccc(Cl)cc2)CCN(CCOc2ccc3ncsc3c2)C1 (single isomer, unassigned) | 5.00 to 6.00 | < 4.52 | < 4.52 | > 7.00 |
| CC1(Oc2ccncc2)CCN(CCOc2ccccc2)C1 (single isomer, unassigned) | 4.52 to 5.00 | < 4.52 | < 4.52 | 6.00 to 7.00 |
| FC(F)(F)c1ccccc1OCCN1CCC2(CC1)CC2c1ccccc1 (single isomer, unassigned) | 6.00 to 7.00 | < 4.52 | 6.00 to 7.00 | < 4.52 |
| CC1(Oc2ccc(Cl)cc2)CCN(CCOc2ccccc2)C1 (single isomer, unassigned) [1a] | 6.00 to 7.00 | < 4.52 | < 4.52 | > 7.00 |
| CC1(Oc2ccc(Cl)cc2)CCN(CCOc2ccccc2)C1 (single isomer, unassigned) [1b] | 5.00 to 6.00 | < 4.52 | > 7.00 | 6.00 to 7.00 |
| CC1(Oc2ccc(Cl)cc2)CCN(CCn2ccccc2=O)C1 (single isomer, unassigned) [7a] | < 4.52 | < 4.52 | < 4.52 | < 4.52 |
| CC1(Oc2ccc(Cl)cc2)CCN(CCn2ccccc2=O)C1 (single isomer, unassigned) [7b] | < 4.52 | < 4.52 | < 4.52 | 5.00 to 6.00 |
| CC1(Oc2ccc(Cl)cc2)CCN(CCOc2cccnc2)C1 (single isomer, unassigned) [12a] | 6.00 to 7.00 | > 7.00 | < 4.52 | > 7.00 |
| CC1(Oc2ccc(Cl)cc2)CCN(CCOc2cccnc2)C1 (single isomer, unassigned) [12b] | < 4.52 | > 7.00 | < 4.52 | > 7.00 |
| CC1(Oc2cccc(C(F)(F)F)c2)CCN(CCOc2ccccc2)C1 (single isomer, unassigned) [55a] | 5.00 to 6.00 | < 4.52 | 6.00 to 7.00 | < 4.52 |
| CC1(Oc2cccc(C(F)(F)F)c2)CCN(CCOc2ccccc2)C1 (single isomer, unassigned) [55b] | 4.52 to 5.00 | < 4.52 | < 4.52 | > 7.00 |
| CC1(Oc2ccc(Cl)cc2)CCCN(CCOc2ccc3scnc3c2)C1 (single isomer, unassigned) [99a] | 5.00 to 6.00 | < 4.52 | 6.00 to 7.00 | < 4.52 |
| CC1(Oc2ccc(Cl)cc2)CCCN(CCOc2ccc3scnc3c2)C1 (single isomer, unassigned) [99b] | 4.52 to 5.00 | < 4.52 | 5.00 to 6.00 | < 4.52 |
| CC1(C(O)c2ccccc2)CCN(CCOc2ccccc2C(F)(F)F)CC1 (single isomer, unassigned) [107a] | > 7.00 | < 4.52 | > 7.00 | > 7.00 |
| CC1(C(O)c2ccccc2)CCN(CCOc2ccccc2C(F)(F)F)CC1 (single isomer, unassigned) [107b] | 6.00 to 7.00 | 6.00 to 7.00 | 4.52 to 5.00 | > 7.00 |
| CC1(O)CCN(CC2COc3ccccc3O2)CC1 (single isomer, unassigned) [140a] | 4.52 to 5.00 | < 4.52 | < 4.52 | 6.00 to 7.00 |
| CC1(O)CCN(CC2COc3ccccc3O2)CC1 (single isomer, unassigned) [140b] | 6.00 to 7.00 | 6.00 to 7.00 | < 4.52 | > 7.00 |
| CC1(Oc2ccc(Cl)cc2)CCN(CC2COc3ccccc3O2)CC1 (single isomer, unassigned) [142a] | < 4.52 | > 7.00 | < 4.52 | > 7.00 |
| CC1(Oc2ccc(Cl)cc2)CCN(CC2COc3ccccc3O2)CC1 (single isomer, unassigned) [142b] | < 4.52 | 5.00 to 6.00 | < 4.52 | 6.00 to 7.00 |
| Clc1ccc(N2CCCC23CCN(CC2COc4ccccc4O2)CC3)cc1 (single isomer, unassigned) [178a] | 6.00 to 7.00 | < 4.52 | > 7.00 | < 4.52 |
| Clc1ccc(N2CCCC23CCN(CC2COc4ccccc4O2)CC3)cc1 (single isomer, unassigned) [178b] | 6.00 to 7.00 | < 4.52 | > 7.00 | 4.52 to 5.00 |

pEC50, pIC50: −log10 of the molar value. Read-outs that look alike come from different tables or passages of the source.
